Results from US20250109343A1, “CORROSION INHIBITOR” (INNOSPEC LIMITED, priority 2022, published 2025).

Test: Linear Polarisation Resistance (LPR) Test, Example 30, synthetic brine composition 1 or 2
Settings: dose 40 ppm of product, one addition, time 19.9-20.1 hr, 60° C., constant CO2 sparge

dodecenyl succinic acid mono triethanolamine salt
Corrosion protection: 99% | Corrosion rate: 0.03 mmpy
